Test results: ChEMBL document CHEMBL5338737, “Lysine-Specific Demethylase 1 Promises to Be a Novel Target in Cancer Drug Resistance: Therapeutic Implications” (J Med Chem, 2023)

Sequences of proteins named here, by UniProt entry; tags and fusion partners are left off.
UniProt P21397, whole entry: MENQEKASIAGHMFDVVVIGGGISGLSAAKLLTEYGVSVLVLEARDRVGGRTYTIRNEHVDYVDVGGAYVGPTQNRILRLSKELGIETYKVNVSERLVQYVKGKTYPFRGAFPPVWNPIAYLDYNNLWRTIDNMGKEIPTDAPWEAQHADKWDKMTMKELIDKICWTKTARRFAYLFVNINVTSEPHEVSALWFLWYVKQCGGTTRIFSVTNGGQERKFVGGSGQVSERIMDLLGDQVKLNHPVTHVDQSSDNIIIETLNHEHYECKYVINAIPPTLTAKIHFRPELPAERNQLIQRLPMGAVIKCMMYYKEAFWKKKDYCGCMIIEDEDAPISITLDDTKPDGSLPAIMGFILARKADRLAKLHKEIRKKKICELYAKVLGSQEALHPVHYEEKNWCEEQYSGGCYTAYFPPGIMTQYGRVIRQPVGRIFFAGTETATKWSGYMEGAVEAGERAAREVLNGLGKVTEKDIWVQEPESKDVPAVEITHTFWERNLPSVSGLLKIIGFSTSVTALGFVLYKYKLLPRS

Molecular target: Amine oxidase [flavin-containing] A (Homo sapiens, UniProt P21397)
Experiment: Binding affinity to MAO-A (unknown origin) assessed as inhibition constant

- Ki: 13 µM
Compound: C#CCN(C)Cc1ccccc1 [PARGYLINE]
